Results: patent US7786122B2

Each molecule was assayed against T1, γ-secretase (Homo sapiens, UniProt P49768) (assay: In vitro assay based on the inhibition of Aβ formation in cultured cells (H4 cells overexpressing HPLAP-APP fusion protein)). Conditions: read-out: ACTIVITY RATING (activity based on IC50 values), 18 hrs incubation.
In the case of `CC(C)C[C@H](C(N)=O)N(Cc1ccc(C(C)(C)F)cc1)S(=O)(=O)c1ccc(Cl)cc1`, the IC50 is reported as < 50 nM.
`COc1ccc(CN(C(CC(C)C)C(N)=O)S(=O)(=O)c2cccc(Cl)c2)cc1F` (stereo not drawn) was tested, and the IC50 was 50 to 500 nM.
For `CC(C)C[C@H](C(N)=O)N(Cc1ccccc1C(F)(F)F)S(=O)(=O)c1ccc(Cl)cc1`, the IC50 was 50 to 500 nM.
In the case of `CN1CCN(CCOc2ccc(CN(C(CCC(F)(F)F)C(N)=O)S(=O)(=O)c3ccc(Cl)cc3)cc2F)CC1` (single isomer, unassigned), the IC50 is reported as 500 to 10000 nM.
For `CC(C)CC(C(N)=O)N(CC1CCN(C(=O)Nc2ccc(C(F)(F)F)cc2)CC1)S(=O)(=O)c1ccc(Cl)cc1` (stereo not drawn), the IC50 was < 50 nM.
For `CC(C)CC(C(N)=O)N(CCCc1ccccc1)S(=O)(=O)c1ccc(Cl)cc1` (stereo not drawn), the IC50 was < 50 nM.

Same assay, conditions: read-out: ACTIVITY RATING (activity based on IC50 values), 18 hrs incubation, tested form: trifluoroacetate (NMR given for the TFA)
`CC(C)CC(C(N)=O)N(Cc1ccc(N2CCCC2)nc1)S(=O)(=O)c1ccc(Cl)cc1` (stereo not drawn) was tested, and the IC50 was 50 to 500 nM.

What follows are molecules tested against T1, γ-secretase (assay: In vitro assay based on the inhibition of Aβ formation from membrane preparations). Conditions: read-out: ACTIVITY RATING (activity based on IC50 values).
Source text: In Vitro Assay to Identify γ-Secretase Inhibitor Based on the Inhibition of Aβ Formation from Membrane Preparations.
An isolated membrane fraction which contains functionally active γ-secretase and β-APP substrates can generate γ-secretase cleavage products including Aβ (Roberts, S. B.; Hendrick, J. P.; Vinitsky, A.; Lewis, M.; Smith, D. W.; Pak, R. PCT Publication WO 01/0175435; Fechteler, K.; Kostka, M.; Fuchs, M. Patent Application No. DE 99-19941039; Shearman, M.; Beher, D. et al., Biochemistry, 2000, 39, 8698-8704; Zhang, L. Song, L. et al., Biochemistry 2001, 40, 5049-5055). An isolated membrane fraction can be prepared from human derived cell lines such as HeLa and H4 which have been transfected with wild type or mutant forms of β-APP or a human alkaline phosphatase β-APP fusion construct, and stably express high levels of γ-secretase substrates. The endogenous γ-secretase present in the isolated membranes prepared at 0-4° C. cleaves the β-APP substrates when the membranes are shifted from 0-4 to 37° C. […] The Aβ present in a homogeneous sample containing membranes can be detected by time-resolved fluorescence with two antibodies that recognize different epitopes of Aβ. One of the antibodies recognizes an epitope that is present in Aβ but not present in the precursor fragments; preferably the antibody binds the carboxyl terminus of Aβ generated by the γ-secretase cleavage. The second antibody binds to any other epitope present on Aβ. For example, antibodies that bind the N-terminal region (e.g., 26D6-B2-B3® SIBIA Neurosciences, La Jolla, Calif.) or bind the C-terminal end (e.g., 9S3.2® antibody, Biosolutions, Newark, Del.) of the Aβ peptide are known. The antibodies are labeled with a pair of fluorescent adducts that transfer fluorescent energy when the adducts are brought in close proximity as a result of binding to the N- and C-terminal ends or regions of Aβ. A lack of fluorescence is indicative of the absence of cleavage products, resulting from inhibition of γ-secretase. The isolated membrane assay can be used to identify candidate agents that inhibit the activity of γ-secretase cleavage and Aβ production.
A typical membrane-based assay requires 45 μg membrane protein per well in a 96- or 384-well format. Membranes in a neutral buffer are combined with the test compound and shifted from 0-4 to 37° C. Test agents may typically consist of synthetic compounds, secondary metabolites from bacterial or fungal fermentation extracts, or extracts from plant or marine samples. All synthetic agents are initially screened at doses ranging from 10-100 μM or in the case of extracts at sufficient dilution to minimize cytotoxicity. Incubation of the membranes with the test agent will continue for approximately 90 minutes at which time fluorescence labeled antibodies are added to each well for Aβ quantitation. The time-resolved fluorescence detection and quantitation of Aβ is described elsewhere (Roberts, S. B.; Hendrick, J. P.; Vinitsky, A.; Lewis, M.; Smith, D. W.; Pak, R. PCT Publication WO 01/0175435; Shearman, M.; Beher, D. et al., Biochemistry, 2000. 39, 8698-8704). Results are obtained by analysis of the plate in a fluorescence plate reader and comparison to the mock treated membranes and samples in which known amounts of Aβ were added to construct a standard concentration curve. A positive acting compound is one that inhibits the Aβ relative to the control sample by at least 50% at the initial tested concentration. If a compound is found to be active then a dose response experiment is preformed to determine the lowest dose of compound necessary to elicit the inhibition of the production of Aβ.
In the table, an inhibitory concentration (IC50) of less than or equal to 50 nM is represented by +++; between 50 nM and 500 nM by ++; between 500 nM and 10000 nM by +.
For `CC(C)CC(C(N)=O)N(Cc1ccc(O)cc1)S(=O)(=O)c1ccc(Cl)cc1` (stereo not drawn), the IC50 was < 50 nM.
In the case of `CC(C)CC(C(N)=O)N(Cc1ccccc1)S(=O)(=O)c1ccc(Cl)cc1` (stereo not drawn), the IC50 is reported as < 50 nM.
`COc1ccc(CN(C(CC(C)C)C(N)=O)S(=O)(=O)c2cccc(Cl)c2)cc1F` (stereo not drawn) gave an IC50 of 50 to 500 nM.
In the case of `CC(C)CC(C(N)=O)N(Cc1ccc(Cl)c(Cl)c1)S(=O)(=O)c1ccc(Cl)cc1` (stereo not drawn), the IC50 is reported as < 50 nM.
With `CCCC(C(N)=O)N(Cc1ccc(C(F)(F)F)cc1)S(=O)(=O)c1ccc(Cl)cc1` (stereo not drawn) the IC50 was < 50 nM.
For `CC(C)CC(C(N)=O)N(Cc1cccc(F)c1)S(=O)(=O)c1ccc(Cl)cc1` (stereo not drawn), the IC50 was < 50 nM.
With `CC(C)CC(C(N)=O)N(Cc1ccc(F)cc1)S(=O)(=O)c1ccc(Cl)cc1` (stereo not drawn) the IC50 was < 50 nM.
`COc1ccc(CN(C(CC(C)C)C(N)=O)S(=O)(=O)c2ccc(C(F)(F)F)cc2)cc1F` (stereo not drawn) was tested, and the IC50 was < 50 nM.
`CC(C)CC(C(N)=O)N(Cc1ccc(Cl)cc1)S(=O)(=O)c1ccc(Cl)cc1` (stereo not drawn) was tested, and the IC50 was < 50 nM.
In the case of `CC(C)CC(C(N)=O)N(Cc1ccc(C(F)(F)F)cc1)S(=O)(=O)c1ccc(Cl)cc1` (stereo not drawn), the IC50 is reported as < 50 nM.
`COc1ccc(CN(C(CC(C)C)C(N)=O)S(=O)(=O)c2ccc(C)cc2)cc1F` (stereo not drawn) was tested, and the IC50 was < 50 nM.
`CC(C)CC(C(N)=O)N(CCCc1ccccc1)S(=O)(=O)c1ccc(Cl)cc1` (stereo not drawn) was tested, and the IC50 was < 50 nM.
With `CC(C)CC(C(N)=O)N(Cc1ccc(C(C)(C)C)cc1)S(=O)(=O)c1ccc(Cl)cc1` (stereo not drawn) the IC50 was < 50 nM.
Work on `COc1ccc(CN(C(CC(C)C)C(N)=O)S(=O)(=O)c2cccc(C(F)(F)F)c2)cc1F` (stereo not drawn) yielded an IC50 of 50 to 500 nM.
In the case of `COc1cccc(CN(C(CC(C)C)C(N)=O)S(=O)(=O)c2ccc(Cl)cc2)c1` (stereo not drawn), the IC50 is reported as < 50 nM.

The molecules below were run against T1, γ-secretase (assay: In vitro binding assay to identify γ-secretase inhibitors ([3H]-Compound A competition, THP-1 cell membranes)). Conditions: read-out: ACTIVITY RATING (activity based on IC50 values).
Source text: In Vitro Binding Assay to Identify γ-Secretase Inhibitors.
Competitive binding assays can be used to identify molecules that inhibit the binding of a radiolabeled γ-secretase inhibitor and therefore inhibit γ-secretase activity. For example, [^3H]-Compound A can be used for binding assays with membranes from THP-1 cells (Seiffert, D.; Bradley, J. et al., J. Biol. Chem. 2000, 275, 34086-34091). Compound A is (2R,3S) N1-[(3S)-hexahydro-1-(3-phenoxybenzyl)-2-oxo-1H-azepin-3-yl]-2-(2-methylpropyl)-3-(propyl)-butanediamide, the synthesis of which is described in U.S. Pat. No. 6,331,408 (Dec. 18, 2001); PCT Publication WO 00/28331; PCT Publication WO 00/07995; and Seiffert, D., Bradley, J. et al., J. Biol. Chem. 2000, 275. 34086-34091.
For these assays, THP-1 cells were grown in spinner cultures in RPMI 1640 containing L-glutamine and 10 μM β-mercaptoethanol to a density of 5×10^5 cells/ml. Cells were harvested by centrifugation and cell pellets were quick frozen in dry ice/ethanol and stored at −70° C. prior to use. The pellets of approximately 2×10^4 THP-1 cells were homogenized using a Brinkman Polytron at setting 6 for 10 sec. […] Filter-bound radioactivity was measured by scintillation counting. IC50 values were then determined and used to calculate Ki values using the Cheng-Prusoft correction for IC50 values. […]
`CN1CCN(Cc2ccc(CN(C(CCC(F)(F)F)C(N)=O)S(=O)(=O)c3ccc(Cl)cc3)cc2)CC1` (stereo not drawn) showed an IC50 of 50 to 500 nM.
With `CN1CCN(CCOc2ccc(CN(C(CCC(F)(F)F)C(N)=O)S(=O)(=O)c3ccc(Cl)cc3)cc2F)CC1` (single isomer, unassigned) the IC50 was 500 to 10000 nM.
